Laboratory results published in PubChem BioAssay AID1321 (The Scripps Research Institute Molecular Screening Center, 2008).
This is a selection; strong and weak results do not stand in their true shares. The source made the active and inactive calls.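 How the source made its calls: active means activation above the mean of all tested compounds plus 3 SD, set per screening run (cut at about 8.8% in these data); inactive means the rest.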

Chains of the proteins cited; added tags and fusions are not shown.
UniProt P30291, whole entry K328M: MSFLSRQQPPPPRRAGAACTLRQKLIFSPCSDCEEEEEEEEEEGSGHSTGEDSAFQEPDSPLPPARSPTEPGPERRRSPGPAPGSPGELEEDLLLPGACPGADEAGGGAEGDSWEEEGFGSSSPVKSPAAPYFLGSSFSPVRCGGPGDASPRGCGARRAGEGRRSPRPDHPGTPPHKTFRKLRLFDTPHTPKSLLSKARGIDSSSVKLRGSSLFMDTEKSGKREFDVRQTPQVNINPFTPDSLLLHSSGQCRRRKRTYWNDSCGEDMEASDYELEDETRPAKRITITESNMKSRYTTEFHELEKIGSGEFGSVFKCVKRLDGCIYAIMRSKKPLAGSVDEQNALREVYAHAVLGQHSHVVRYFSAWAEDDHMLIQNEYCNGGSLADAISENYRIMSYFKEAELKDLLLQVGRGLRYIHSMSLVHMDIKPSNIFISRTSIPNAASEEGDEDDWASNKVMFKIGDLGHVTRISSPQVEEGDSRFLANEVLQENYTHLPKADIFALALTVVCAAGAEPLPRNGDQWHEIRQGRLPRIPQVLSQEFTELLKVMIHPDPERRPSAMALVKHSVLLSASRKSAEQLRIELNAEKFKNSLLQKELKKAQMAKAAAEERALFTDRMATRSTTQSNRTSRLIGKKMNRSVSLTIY

target: Wee1-like protein kinase (Homo sapiens) (UniProt P30291); experiment: compounds stabilizing Wee1-luciferase fusion – cell-based, HeLa, Wee1K328M-luciferase, luminescence, primary screen (AID 1321); settings: HeLa Luc-Wee1K328M stability, at 5 µM, stronger effect = higher value, 100% = proteasome inhibitor MG132 effect;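 further: cells exposed to compound for 20 h before luminescence read; 0% = DMSO alone and 100% = MG132 at 30 µM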

Compound	reporter increase
O=[N+]([O-])c1cc([N+](=O)[O-])c(Nc2ccccn2)c([N+](=O)[O-])c1	inactive: -3.69%
